How the values were obtained:
[1] = in vivo; cited from earlier work
[2] = system: canine OS; test: Phase I/II type protocol of ^225Ac-labeled trastuzumab in dogs with osteosarcoma: toxicity / MTD; type: in vivo; details: expected
Text: In accordance with the inventive methods, the inventors will identify the MTD while also collecting data that will allow calculation of DLO and tumor dosimetry. […] This is because the tumor burden in dogs is generally lower than in leukemia patients, it is less rapidly accessible and therefore not likely to be as substantial a sink that removes alphaRPT from the circulation. Accordingly, the MTD in humans is likely an overestimate of the MTD in canines. The MTD in tumor-free monkeys is an underestimate for the opposite reason—there is no disease to take up alphaRPT in circulation. No study used imaging as in accordance with the inventive methods because the activity of ^225Ac was too low to image. As a result the MTD that is expressed in terms of AA cannot be related to the AD in marrow (acute DLO) and kidney (delayed DLO). Using the inventive methods the MTD is identified in tumor-bearing dogs and the imaging and PK data is collected which will relate DLO AD to measured hematologic and renal toxicity.
A phase I/II type protocol, similar to that used for human studies when the number of patients is limited will be used and is depicted in FIG. 8. Toxicity will be investigated at 2, 3 and 4 μCi/kg. Blood counts, blood urea nitrogen (BUN), creatinine and urine specific gravity (USG) will be monitored to evaluate toxicity. […] Circulating levels of free ^213Bi will be measured by counting immediately after sample collection and 5 to 24 hours later when ^225Ac is in equilibrium with its daughters. […]
The AA-based MTD will be identified and will subsequently use the PK/imaging data collected to relate dose-limiting organ AD to measured toxicity. The dose associated with a 10% DLT probability will be determined, where a DLT is defined as Grade 3 or above acute hematologic toxicity as well as renal toxicity based on Common Terminology Criteria for Adverse Events (CTCAE). […] Secondary objectives are to utilize PET imaging, collect PK data to relate dose-limiting organ (DLO) absorbed dose (AD) to measured toxicity. […]

| Substance | distribution compared with ^213Bi-Tz [1] | toxicity ([2]; 2 μCi/kg dose level) | likelihood of encountering renal toxicity ([2]; 3 μCi/kg) | likelihood of encountering renal toxicity ([2]; 4 μCi/kg) |
| --- | --- | --- | --- | --- |
| ^111In-Tz: ^111In-labeled trastuzumab, imaging and biodistribution surrogate for ^213Bi-Tz | identical distribution |  |  |  |
| ATz: ^225Ac-DOTA-trastuzumab alphaRPT |  | minimal | 10% | 30% |

From patent US20160193372A1, “METHODS OF IDENTIFYING SURROGATE IMAGING AGENTS FOR ALPHA EMITTER RADIOPHARMACEUTICALS AND THEIR USE IN TREATMENT OF DISEASE” (THE JOHNS HOPKINS UNIVERSITY, priority 2012, published 2016)
